This is an account of results in ChEMBL document CHEMBL3638802, “Preparation and uses of 1,2,4-triazolo [1,5a] pyridine derivatives” (2013).

The chains behind the UniProt entries cited, without tags or fusion partners.
UniProt Q05397, whole entry: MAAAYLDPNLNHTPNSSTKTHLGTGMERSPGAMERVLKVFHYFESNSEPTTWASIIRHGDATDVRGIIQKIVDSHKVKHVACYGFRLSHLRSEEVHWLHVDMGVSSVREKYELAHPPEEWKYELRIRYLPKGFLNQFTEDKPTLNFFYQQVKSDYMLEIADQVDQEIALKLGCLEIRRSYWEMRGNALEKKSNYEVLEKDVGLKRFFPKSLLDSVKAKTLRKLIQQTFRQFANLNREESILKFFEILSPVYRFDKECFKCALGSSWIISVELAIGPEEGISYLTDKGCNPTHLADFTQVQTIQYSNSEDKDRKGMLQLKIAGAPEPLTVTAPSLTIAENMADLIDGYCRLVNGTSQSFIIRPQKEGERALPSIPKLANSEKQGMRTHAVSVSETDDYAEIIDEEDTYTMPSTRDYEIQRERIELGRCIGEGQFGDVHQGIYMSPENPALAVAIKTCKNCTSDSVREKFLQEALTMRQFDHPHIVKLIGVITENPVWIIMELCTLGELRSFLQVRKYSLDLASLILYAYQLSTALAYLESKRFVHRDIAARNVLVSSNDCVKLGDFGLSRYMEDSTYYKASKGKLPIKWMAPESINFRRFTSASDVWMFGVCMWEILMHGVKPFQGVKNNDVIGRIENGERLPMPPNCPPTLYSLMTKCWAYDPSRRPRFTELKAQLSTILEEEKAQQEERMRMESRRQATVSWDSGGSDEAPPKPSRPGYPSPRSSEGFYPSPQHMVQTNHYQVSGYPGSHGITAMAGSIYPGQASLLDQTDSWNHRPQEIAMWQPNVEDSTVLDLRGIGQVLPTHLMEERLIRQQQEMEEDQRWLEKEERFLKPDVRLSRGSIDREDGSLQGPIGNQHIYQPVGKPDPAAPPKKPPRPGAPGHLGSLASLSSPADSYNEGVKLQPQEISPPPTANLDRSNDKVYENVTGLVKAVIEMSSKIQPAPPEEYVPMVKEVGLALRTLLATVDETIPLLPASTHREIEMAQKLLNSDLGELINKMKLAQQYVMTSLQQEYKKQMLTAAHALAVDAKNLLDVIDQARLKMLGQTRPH

The assay deals with Focal adhesion kinase 1 (Homo sapiens, UniProt Q05397).

In turn, `Oc1cccn2nc(Nc3ccc(C(F)(F)F)cc3)nc12` gave an IC50 of at least 10 µM.
